Source: US10253035B2 (priority 2016, dated 2019)

Chains of the proteins cited; added tags and fusions are not shown. Residues count along the entry.
UniProt P9WFK7, 2-402 limits assumed: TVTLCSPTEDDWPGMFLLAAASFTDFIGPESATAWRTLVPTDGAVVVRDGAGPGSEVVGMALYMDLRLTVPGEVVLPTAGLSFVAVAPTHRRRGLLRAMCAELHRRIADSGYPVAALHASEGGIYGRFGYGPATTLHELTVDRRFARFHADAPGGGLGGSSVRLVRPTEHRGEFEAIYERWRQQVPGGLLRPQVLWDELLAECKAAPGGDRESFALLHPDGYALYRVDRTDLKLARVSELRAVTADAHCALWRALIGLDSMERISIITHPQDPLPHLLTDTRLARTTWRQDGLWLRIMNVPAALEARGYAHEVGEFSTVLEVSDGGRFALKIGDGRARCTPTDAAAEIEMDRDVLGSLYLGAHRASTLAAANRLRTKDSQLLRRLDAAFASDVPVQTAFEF

Biological target: Eis_Mtb (Mycobacterium tuberculosis, UniProt P9WFK7)
Test: biochemical

O=C(C[N+]1=C(c2ccc(F)c(F)c2)c2cccn2CC1)c1ccccc1 [Compound 3a]
IC50: 150 ± 50 nM
